Measurements reported in PMC4169044.

What was measured:
[1] = biological target: E. coli 70S ribosome; assay: co-sedimentation; 25 pmol E. coli 70S ribosomes and 250 pmol ICT1 in 250 µl buffer A (10 mM Tris-HCl pH 7.5, 80 mM NH4Cl, 8.2 mM MgSO4, 1 mM DTT), 30°C for 20 min; 15%-30% sucrose gradient; fractions blotted with an ICT1 antibody
[2] = biological target: 55S mitochondrial ribosome from pig liver mitochondria (pig (endogenous in pig liver mitochondria)); assay: co-sedimentation; 75 pmol 55S ribosomes and 1,250 pmol N-terminal histidine tagged ICT1 in 250 µl buffer A (10 mM Tris-HCl pH 7.5, 80 mM NH4Cl, 8.2 mM MgSO4, 1 mM DTT), 30°C for 20 min; 15%-30% sucrose gradient, 39,000 rpm for 5.5 hour; fractions blotted with an ICT1 antibody

percent of the input bound (% of the input ICT1) [1] | stoichiometry N (ICT1 per ribosome) [1] | percent of the input bound (% of the input ICT1) [2] | stoichiometry N (ICT1 per ribosome) [2] | Substance
10 | 1 | – | – | human mitochondrial ICT1 (immature colon carcinoma transcript-1), wild type, histidine tag removed (from UniProt Q14197 30-206) (natural protein)
– | – | 5 | 1 | N-terminally histidine-tagged human ICT1, wild type (from UniProt Q14197 30-206) (natural protein)
